Results reported in PubChem BioAssay (Tox21).
These results got no clear call from the source, so the numbers are uncertain. Unless noted, calls follow the shape of the dose curve; as a rule, active = well fitted curve in the direction sought with a large enough effect in the repeat runs; inconclusive = weak or mixed curves; inactive = no such curve, though single readings can be large; an effect the other way counts as inactive or inconclusive.

The chains behind the UniProt entries cited, without tags or fusion partners. Where a name states a change or a piece, a line headed by the entry shows the natural chain unless it says otherwise.
UniProt P10275: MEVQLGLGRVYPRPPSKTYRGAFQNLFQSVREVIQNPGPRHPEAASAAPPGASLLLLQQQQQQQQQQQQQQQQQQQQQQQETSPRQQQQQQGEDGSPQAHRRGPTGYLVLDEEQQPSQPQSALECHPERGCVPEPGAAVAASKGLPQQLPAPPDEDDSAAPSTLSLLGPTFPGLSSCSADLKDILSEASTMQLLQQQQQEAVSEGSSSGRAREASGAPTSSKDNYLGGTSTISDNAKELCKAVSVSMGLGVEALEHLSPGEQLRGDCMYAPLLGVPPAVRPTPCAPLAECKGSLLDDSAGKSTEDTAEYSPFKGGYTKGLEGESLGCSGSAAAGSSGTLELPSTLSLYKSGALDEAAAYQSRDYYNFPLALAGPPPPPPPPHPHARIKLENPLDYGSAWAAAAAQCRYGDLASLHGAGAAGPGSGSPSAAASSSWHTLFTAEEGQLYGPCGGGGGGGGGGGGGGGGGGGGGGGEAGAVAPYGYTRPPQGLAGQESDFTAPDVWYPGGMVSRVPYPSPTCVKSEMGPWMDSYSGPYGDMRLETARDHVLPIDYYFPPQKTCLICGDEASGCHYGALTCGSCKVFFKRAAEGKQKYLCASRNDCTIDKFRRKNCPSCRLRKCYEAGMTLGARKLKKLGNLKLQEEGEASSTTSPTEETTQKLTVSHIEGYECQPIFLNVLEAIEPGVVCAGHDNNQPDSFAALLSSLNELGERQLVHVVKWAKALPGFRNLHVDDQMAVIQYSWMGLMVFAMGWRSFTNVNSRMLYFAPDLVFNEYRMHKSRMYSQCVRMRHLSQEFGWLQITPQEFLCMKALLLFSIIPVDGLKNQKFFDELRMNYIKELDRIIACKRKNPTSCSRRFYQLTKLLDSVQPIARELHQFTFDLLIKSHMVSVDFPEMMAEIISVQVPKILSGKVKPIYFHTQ
UniProt P03372, whole entry, looked up: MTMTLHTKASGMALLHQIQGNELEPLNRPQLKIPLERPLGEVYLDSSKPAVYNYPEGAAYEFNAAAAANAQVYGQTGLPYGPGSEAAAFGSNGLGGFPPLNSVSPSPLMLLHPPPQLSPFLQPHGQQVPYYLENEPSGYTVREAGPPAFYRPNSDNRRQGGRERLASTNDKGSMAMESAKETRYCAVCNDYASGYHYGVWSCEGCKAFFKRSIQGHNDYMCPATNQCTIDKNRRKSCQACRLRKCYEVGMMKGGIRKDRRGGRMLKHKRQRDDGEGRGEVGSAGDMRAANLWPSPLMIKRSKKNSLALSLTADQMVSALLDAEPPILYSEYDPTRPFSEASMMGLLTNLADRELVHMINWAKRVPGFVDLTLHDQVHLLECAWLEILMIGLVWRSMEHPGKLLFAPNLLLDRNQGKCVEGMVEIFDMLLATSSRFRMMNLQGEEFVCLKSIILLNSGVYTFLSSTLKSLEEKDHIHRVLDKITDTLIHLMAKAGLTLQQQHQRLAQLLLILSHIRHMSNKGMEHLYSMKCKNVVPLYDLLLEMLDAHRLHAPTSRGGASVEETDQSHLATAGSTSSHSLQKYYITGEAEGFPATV
UniProt Q14994: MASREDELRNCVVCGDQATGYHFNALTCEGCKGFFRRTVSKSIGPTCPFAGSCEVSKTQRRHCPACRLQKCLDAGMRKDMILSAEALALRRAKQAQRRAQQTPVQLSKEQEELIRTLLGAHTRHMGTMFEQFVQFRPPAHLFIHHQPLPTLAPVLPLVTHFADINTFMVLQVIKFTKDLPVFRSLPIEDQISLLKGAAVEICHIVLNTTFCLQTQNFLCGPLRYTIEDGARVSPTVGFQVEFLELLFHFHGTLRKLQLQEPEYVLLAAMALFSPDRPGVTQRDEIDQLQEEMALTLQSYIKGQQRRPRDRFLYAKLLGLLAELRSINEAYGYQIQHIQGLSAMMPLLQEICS
UniProt P22303: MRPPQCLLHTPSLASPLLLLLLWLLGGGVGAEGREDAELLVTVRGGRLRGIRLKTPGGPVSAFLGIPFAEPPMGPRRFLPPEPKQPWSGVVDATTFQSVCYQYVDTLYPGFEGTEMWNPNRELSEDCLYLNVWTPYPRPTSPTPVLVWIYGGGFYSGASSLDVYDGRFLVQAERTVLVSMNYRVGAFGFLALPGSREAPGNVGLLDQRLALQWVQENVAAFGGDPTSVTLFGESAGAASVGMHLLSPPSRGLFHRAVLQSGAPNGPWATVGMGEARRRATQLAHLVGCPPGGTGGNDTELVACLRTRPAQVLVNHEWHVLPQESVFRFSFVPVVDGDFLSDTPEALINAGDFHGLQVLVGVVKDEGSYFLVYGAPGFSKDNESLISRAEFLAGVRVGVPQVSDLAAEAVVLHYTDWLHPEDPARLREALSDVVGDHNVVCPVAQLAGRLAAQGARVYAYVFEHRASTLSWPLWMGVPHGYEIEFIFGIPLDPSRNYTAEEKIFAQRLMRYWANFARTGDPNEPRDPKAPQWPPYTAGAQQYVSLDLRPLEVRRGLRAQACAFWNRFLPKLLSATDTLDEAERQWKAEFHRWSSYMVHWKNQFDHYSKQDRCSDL
UniProt P08684, whole entry, looked up: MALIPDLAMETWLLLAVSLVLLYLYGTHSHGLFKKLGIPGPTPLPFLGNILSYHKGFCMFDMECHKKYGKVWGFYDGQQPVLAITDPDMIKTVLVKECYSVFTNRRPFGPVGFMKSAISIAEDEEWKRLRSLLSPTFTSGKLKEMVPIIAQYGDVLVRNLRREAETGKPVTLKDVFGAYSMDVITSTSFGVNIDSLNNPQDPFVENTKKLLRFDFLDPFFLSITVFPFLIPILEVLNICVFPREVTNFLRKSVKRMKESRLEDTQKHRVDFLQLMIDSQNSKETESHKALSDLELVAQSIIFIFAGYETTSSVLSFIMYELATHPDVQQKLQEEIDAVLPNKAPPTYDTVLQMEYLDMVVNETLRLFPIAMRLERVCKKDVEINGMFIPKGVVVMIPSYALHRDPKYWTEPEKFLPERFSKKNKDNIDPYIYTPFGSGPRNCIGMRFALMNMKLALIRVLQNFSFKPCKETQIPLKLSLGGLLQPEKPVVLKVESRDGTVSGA
UniProt P35869: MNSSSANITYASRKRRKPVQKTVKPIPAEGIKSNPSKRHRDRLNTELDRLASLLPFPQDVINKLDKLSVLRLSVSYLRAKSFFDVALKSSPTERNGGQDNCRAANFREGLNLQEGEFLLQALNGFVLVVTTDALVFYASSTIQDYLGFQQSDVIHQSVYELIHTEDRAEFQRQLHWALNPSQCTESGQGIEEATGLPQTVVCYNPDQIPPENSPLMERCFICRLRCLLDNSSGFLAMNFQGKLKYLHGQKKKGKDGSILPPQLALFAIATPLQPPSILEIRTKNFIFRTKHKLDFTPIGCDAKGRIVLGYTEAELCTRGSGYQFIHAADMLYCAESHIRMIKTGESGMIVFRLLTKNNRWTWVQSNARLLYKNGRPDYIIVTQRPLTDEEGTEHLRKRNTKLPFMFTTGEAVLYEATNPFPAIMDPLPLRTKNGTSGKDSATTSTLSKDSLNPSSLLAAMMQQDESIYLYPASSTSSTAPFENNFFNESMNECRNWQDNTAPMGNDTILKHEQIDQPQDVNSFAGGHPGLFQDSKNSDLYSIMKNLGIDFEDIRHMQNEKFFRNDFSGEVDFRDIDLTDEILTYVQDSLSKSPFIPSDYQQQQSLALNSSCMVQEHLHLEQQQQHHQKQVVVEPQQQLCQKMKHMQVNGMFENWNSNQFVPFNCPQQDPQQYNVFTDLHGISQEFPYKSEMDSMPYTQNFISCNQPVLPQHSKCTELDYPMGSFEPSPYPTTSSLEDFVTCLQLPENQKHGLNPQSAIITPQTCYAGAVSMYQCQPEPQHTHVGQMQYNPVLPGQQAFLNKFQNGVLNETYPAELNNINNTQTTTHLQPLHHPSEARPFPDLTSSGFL
UniProt P33261, whole entry, looked up: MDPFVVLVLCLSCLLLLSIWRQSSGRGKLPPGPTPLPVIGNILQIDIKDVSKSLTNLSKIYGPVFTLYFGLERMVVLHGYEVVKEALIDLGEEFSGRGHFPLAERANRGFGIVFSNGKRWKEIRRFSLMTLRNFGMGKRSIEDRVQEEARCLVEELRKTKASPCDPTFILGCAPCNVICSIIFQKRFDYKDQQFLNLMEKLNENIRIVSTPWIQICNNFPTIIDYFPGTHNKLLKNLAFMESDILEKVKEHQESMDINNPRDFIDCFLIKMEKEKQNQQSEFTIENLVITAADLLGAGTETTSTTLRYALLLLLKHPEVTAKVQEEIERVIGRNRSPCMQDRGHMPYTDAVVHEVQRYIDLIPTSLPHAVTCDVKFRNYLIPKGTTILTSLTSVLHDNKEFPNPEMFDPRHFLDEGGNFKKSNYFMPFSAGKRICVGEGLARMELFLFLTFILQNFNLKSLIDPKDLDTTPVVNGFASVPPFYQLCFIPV
UniProt P19793: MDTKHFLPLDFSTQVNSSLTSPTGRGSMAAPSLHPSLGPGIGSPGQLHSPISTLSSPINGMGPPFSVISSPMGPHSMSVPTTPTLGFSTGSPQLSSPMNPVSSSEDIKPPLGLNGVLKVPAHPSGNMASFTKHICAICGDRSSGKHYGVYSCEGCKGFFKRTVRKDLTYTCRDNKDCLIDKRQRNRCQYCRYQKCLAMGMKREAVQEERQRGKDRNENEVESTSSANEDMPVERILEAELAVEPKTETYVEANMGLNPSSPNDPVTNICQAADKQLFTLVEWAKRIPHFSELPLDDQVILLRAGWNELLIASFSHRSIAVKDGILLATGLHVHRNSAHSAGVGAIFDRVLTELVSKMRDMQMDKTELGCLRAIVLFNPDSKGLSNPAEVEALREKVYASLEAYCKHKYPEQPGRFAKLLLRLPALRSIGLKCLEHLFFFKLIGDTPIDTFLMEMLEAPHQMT
UniProt P11712, whole entry, looked up: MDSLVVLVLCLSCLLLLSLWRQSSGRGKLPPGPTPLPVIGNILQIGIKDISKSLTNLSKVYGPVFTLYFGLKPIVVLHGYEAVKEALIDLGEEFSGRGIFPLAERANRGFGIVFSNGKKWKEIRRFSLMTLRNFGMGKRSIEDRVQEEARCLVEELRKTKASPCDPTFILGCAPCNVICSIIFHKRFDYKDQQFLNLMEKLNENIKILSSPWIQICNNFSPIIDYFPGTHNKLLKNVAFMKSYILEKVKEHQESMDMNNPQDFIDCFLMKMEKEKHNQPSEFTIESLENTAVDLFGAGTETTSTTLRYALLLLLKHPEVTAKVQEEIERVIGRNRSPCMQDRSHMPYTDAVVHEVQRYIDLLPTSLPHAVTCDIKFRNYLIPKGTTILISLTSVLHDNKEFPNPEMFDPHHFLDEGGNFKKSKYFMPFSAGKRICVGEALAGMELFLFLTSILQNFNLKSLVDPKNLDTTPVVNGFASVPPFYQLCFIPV
UniProt P16473, whole entry, looked up: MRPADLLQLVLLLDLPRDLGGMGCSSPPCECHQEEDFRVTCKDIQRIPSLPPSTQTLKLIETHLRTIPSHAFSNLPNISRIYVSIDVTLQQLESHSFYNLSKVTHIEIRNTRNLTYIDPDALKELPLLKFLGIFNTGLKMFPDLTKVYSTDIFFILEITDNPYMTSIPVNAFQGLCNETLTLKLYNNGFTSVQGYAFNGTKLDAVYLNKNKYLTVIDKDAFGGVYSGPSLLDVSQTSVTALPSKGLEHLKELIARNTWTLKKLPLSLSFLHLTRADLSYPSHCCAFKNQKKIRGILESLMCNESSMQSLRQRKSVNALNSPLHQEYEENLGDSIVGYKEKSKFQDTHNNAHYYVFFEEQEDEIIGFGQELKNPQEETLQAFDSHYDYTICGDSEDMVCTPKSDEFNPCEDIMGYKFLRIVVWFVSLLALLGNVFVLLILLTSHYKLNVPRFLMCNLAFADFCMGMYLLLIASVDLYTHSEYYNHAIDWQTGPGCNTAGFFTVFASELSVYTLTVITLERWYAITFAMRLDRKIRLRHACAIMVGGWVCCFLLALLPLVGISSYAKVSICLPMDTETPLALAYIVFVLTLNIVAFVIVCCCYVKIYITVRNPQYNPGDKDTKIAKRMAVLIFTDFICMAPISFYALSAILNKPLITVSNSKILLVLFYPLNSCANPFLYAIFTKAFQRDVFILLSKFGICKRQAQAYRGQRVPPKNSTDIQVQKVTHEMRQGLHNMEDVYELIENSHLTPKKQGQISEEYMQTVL
UniProt P10635, whole entry, looked up: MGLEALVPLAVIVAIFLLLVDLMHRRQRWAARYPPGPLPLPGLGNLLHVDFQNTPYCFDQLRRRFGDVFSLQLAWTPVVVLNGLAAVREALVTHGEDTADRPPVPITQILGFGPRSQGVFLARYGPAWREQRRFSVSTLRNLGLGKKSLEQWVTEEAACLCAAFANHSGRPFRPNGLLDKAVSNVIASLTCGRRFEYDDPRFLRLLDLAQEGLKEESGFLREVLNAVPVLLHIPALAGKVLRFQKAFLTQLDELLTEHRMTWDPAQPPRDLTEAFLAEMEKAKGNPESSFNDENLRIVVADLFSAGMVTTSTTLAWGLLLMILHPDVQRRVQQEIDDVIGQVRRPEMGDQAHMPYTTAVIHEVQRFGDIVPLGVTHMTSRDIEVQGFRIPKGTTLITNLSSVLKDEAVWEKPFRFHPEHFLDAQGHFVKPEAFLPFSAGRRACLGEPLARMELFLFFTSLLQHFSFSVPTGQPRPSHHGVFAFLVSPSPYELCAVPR

Columns and labels:
[1] = qHTS assay for small molecule agonists of the p53 signaling pathway (AID 651631; calls by dose curve; also: % is scaled to controls: 0 for no effect and ±100 for the full control effect; nearly all actives have a fitted effect of over 15% in size); settings: HCT-116 p53RE-bla reporter, beta-lactamase FRET ratio, 16 h; activation: at 73.3 µM (top of the series)
Method in brief: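 Readout was fluorescence from the LiveBLAzer FRET substrate, applied for 2 h at room temperature after 16 h compound exposure at 37 °C. Cells were the p53RE-bla HCT-116 line, with beta-lactamase driven by p53 response elements.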

[2] = target: Androgen receptor (Homo sapiens) (UniProt P10275); test: qHTS assay to identify small molecule agonists of the androgen receptor (AR) signaling pathway (AID 743036; active = well fitted activation curve with a large enough effect in the signal ratio in the repeat runs, with a control signal flat, not every such curve was filed as active; inconclusive = weak or mixed curves, or effect the other way; inactive = no such curve, though single readings can be large or run the other way; the % refers to the signal ratio; also: % is scaled to controls: 0 for no effect and ±100 for the full control effect); settings: HEK293 AR-UAS-bla GripTite, beta-lactamase FRET ratio, 16 h; activation: at 62.4 µM (top of the series)
[3] = qHTS assay to identify small molecule antagonists of the androgen receptor (AR) signaling pathway using the MDA cell line - cell viability counter screen (AID 743041; also: potency is read from the fitted curve at half-maximal effect; nearly all actives have a fitted effect of over 45% in size); settings: MDA-kb2 viability, CellTiter-Fluor, 16 h; cells co-treated with R1881 androgen agonist
Method in brief: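 MDA-kb2 AR-luc human breast carcinoma cells (MMTV-luciferase, AR/GR responsive) were treated with compounds plus R1881 agonist for 16 h at 37 °C. Viability was read as CellTiter-Fluor fluorescence in the same wells as the reporter assay.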

[4] = tested on: thyroid hormone receptor (rat, GH3 cells); test: qHTS assay to identify small molecule agonists of the thyroid receptor (TR) signaling pathway (AID 743066; calls by dose curve; also: potency is read from the fitted curve at half-maximal effect); settings: GH3.TRE-Luc cells, TR agonist luciferase, 24 h; activation: at 83.9 µM (top of the series)
[5] = target: Estrogen receptor (Homo sapiens) (UniProt P03372); test: qHTS assay to identify small molecule agonists of the estrogen receptor alpha (ER-alpha) signaling pathway using the BG1 cell line (AID 743079); settings: BG1Luc4E2 cells, ERE-luciferase agonist, 22 h; activation: at 70.3 µM (top of the series); also: potency is read from the fitted curve at half-maximal effect; nearly all actives have a fitted effect of over 20% in size
[6] = qHTS assay to identify small molecule antagonists of the estrogen receptor alpha (ER-alpha) signaling pathway using the BG1 cell line (AID 743080; calls by dose curve;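 also: BG1 cells stimulated with 17beta-estradiol alongside compound; potency is read from the fitted curve at half-maximal effect; nearly all actives have a fitted effect of over 25% in size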); settings: BG1Luc4E2 ERE-luciferase antagonist mode, luminescence
Method in brief: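 Luminescence from a 4×ERE-luciferase reporter in BG1-Luc-4E2 cells served as read-out. Cells, pre-cultured 5 days in stripped-serum phenol-red-free medium, were exposed to compound with 17beta-estradiol co-stimulation for 21.5 h at 37 C.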

[7] = qHTS assay to identify small molecule that activate the aryl hydrocarbon receptor (AhR) signaling pathway - cell viability counter screen (AID 743086); settings: HepG2-AhR-luc viability, CellTiter-Fluor, 24 h; also: potency is read from the fitted curve at half-maximal effect; nearly all actives have a fitted effect of over 45% in size
Method in brief: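 HepG2-AhR-luc (HG2L7.5c1) cells, 4000/well, were preincubated 5 h at 37C, exposed to compound in qHTS format for 24 hr at 37C, then given CellTiter-Fluor for 30 min; viability was read as fluorescence in the reporter wells.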

[8] = qHTS assay to identify small molecule agonists of the endoplasmic reticulum stress response signaling pathway - cell viability counter screen (AID 1159517; calls by dose curve; also: potency is read from the fitted curve at half-maximal effect; nearly all actives have a fitted effect of over 50% in size); settings: ESRE-bla HeLa viability, CellTiter-Glo luminescence, 5 h
Method in brief: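 Luminescence readout: CellTiter-Glo, 30 min RT, same wells as the ESRE-bla reporter read. HeLa ESRE-bla, 1,500 cells/well, o/n 37 C; cpd 5 hr 37 C/5% CO2.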

[9] = qHTS assay to identify small molecule antagonists of the sonic hedgehog signaling (Shh) pathway (AID 1259369; calls by dose curve; also: potency is read from the fitted curve at half-maximal effect; nearly all actives have a fitted effect of over 45% in size); settings: NIH/3T3 Gli1-Luc reporter, Shh antagonist, luminescence 24 h
Method in brief: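 For antagonist detection, the reporter line received test compounds together with conditioned medium, incubated 24hr at 37 C, 5% CO2, then luminescence was recorded following 30min room-temperature luciferase reagent incubation.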

[10] = Human pregnane X receptor (PXR) small molecule agonists, qHTS cell viability counter screen (AID 1346977); settings: PXR-Luc HepG2 viability, CellTiter-Fluor, 24 h; also: potency is read from the fitted curve at half-maximal effect; nearly all actives have a fitted effect of over 50% in size
Method in brief: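 Same-well viability read: CellTiter-Fluor added after 23 hr compound exposure, fluorescence measured 1 hr later. Cells were PXR-Luc HepG2 seeded at 2,000/well in 5% charcoal-stripped FBS medium, rested 5 hr before dosing at 37 C.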

[11] = target: Voltage-gated inwardly rectifying potassium channel KCNH2 (Homo sapiens) (UniProt Q12809); test: Human Ether-a-go-go-Related Gene (hERG) channel small molecule antagonists: fluorescence cell-based qHTS assay (AID 1671200); settings: hERG-U2OS cells, FluxOR thallium flux fluorescence; also: potency is read from the fitted curve at half-maximal effect; nearly all actives have a fitted effect of over 50% in size
Method in brief: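 Thallium flux as potassium surrogate: FluxOR II dye loaded 1 h at room temperature into hERG-expressing U2OS cells, then stimulus buffer added after 10 min. Kinetic 480 nm excitation/540 nm emission read, 2 min.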

[12] = target: Nuclear receptor subfamily 1 group I member 3 (Homo sapiens) (UniProt Q14994); test: qHTS assay to identify small molecule agonists of the constitutive androstane receptor (CAR) signaling pathway (AID 1224839); settings: HepG2 hCAR CYP2B6-luciferase, agonist mode, 24 h; also: potency is read from the fitted curve at half-maximal effect; nearly all actives have a fitted effect of over 15% in size
[13] = qHTS assay to identify small molecule antagonists of the TGF-beta/Smad signaling pathway - cell viability counter screen (AID 1346824); settings: SBE-bla HEK293T viability, CellTiter-Glo luminescence; also: potency is read from the fitted curve at half-maximal effect; nearly all actives have a fitted effect of over 50% in size
Method in brief: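 SBE-bla HEK 293T cells were plated overnight at 37 C, then given compounds in DMSO plus TGF-beta1 (added as 0.25 ng/mL solution) for 5 hr. After the bla read, CellTiter-Glo was added to the same wells and luminescence read after 30 min at room temperature.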

[14] = target: Acetylcholinesterase (Homo sapiens) (UniProt P22303); test: Acetylcholinesterase (AChE) small molecule antagonists: colormetric cell-based qHTS assay (AID 1347395; calls by dose curve; also: potency is read from the fitted curve at half-maximal effect; nearly all actives have a fitted effect of over 30% in size); settings: SH-SY5Y cells AChE activity, colorimetric (Ellman)
Method in brief: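 Colorimetric readout: DTNB quantifies thiocholine from acetylthiocholine hydrolysed by endogenous AChE of SH-SY5Y cells (2,000/well, plated overnight). Compound pretreatment 30 min, substrate incubation 90 min, both 37 C.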

[15] = target: Cytochrome P450 3A4 (Homo sapiens) (UniProt P08684); test: Cytochrome P450 Family 3 Subfamily A Member 4 (CYP3A4) small molecule antagonists: luciferase reporter qHTS assay (AID 1671201); settings: P450-Glo CYP3A4 enzyme, luciferin luminescence, 1 h
Method in brief: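 Recombinant human CYP3A4 converts a proluciferin substrate to luciferin over 1 h at room temperature after NADPH regeneration solution is added (compound preincubated 10 min); detection reagent stops reaction, luminescence read 20 min later as relative units.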

[16] = qHTS assay to test for compound auto fluorescence at 460 nm (blue) in HepG2 cells (AID 720687); settings: autofluorescence 405/460 nm, 1 h; also: potency is read from the fitted curve at half-maximal effect
Method in brief: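 Cells (2,000/well in MEM with 10% FBS) attached overnight at 37 C, then were exposed to compound or DMSO for 1 hr at 37 C, 5% CO2. Fluorescence read at Ex/Em 405/460 nm, expressed as triamterene-equivalent signal.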

[17] = qHTS assay to identify small molecule antagonists of the estrogen receptor alpha (ER-alpha) signaling pathway - cell viability counter screen (AID 743074; calls by dose curve;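 also: HEK293 cells carrying ER-alpha-UAS-bla reporter stimulated with 17beta-estradiol; potency is read from the fitted curve at half-maximal effect; nearly all actives have a fitted effect of over 45% in size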); settings: ERalpha-bla HEK293 viability, CellTiter-Glo luminescence, 18 h
[18] = target: Vitamin D3 receptor (Homo sapiens) (UniProt P11473); test: qHTS assay to identify small molecule agonists of the vitamin D receptor (VDR) signaling pathway (AID 743222; calls by dose curve; also: % is scaled to controls: 0 for no effect and ±100 for the full control effect); settings: HEK293T VDR-UAS-bla, beta-lactamase FRET ratio, 16 h; activation: at 63.5 µM (top of the series)
Method in brief: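 In VDR-bla cells, compound-induced beta-lactamase expression is quantified by FRET substrate fluorescence. Treatment lasts 16 h at 37C; substrate develops 2 h at room temperature.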

[19] = qHTS assay to identify small molecule agonists of the NFkB signaling pathway - cell viability counter screen (AID 1159515; calls by dose curve; also: potency is read from the fitted curve at half-maximal effect; nearly all actives have a fitted effect of over 55% in size); settings: NFkB-bla ME-180 viability, CellTiter-Glo luminescence, 5 h
Method in brief: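 Using the same wells as the NFkB reporter read, ME-180 NFkB-bla cells given compounds for 5 hr were assessed for viability via CellTiter-Glo, with luminescence taken after a 30 min room-temperature incubation.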

[20] = qHTS assay to identify small molecule antagonists of the constitutive androstane receptor (CAR) signaling pathway - cell viability counter screen (AID 1224837); settings: HepG2-CYP2B6-hCAR viability, CellTiter-Fluor, 23 h; co-treated with 50 nM CITCO
Method in brief: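 Counter screen run in HepG2-CYP2B6-hCAR cells: 4 hr settle, compound titration (15 concentrations) with 50 nM CITCO, 23 hr at 37 C/5% CO2, CellTiter-Fluor fluorescence.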

[21] = target: Aryl hydrocarbon receptor (Homo sapiens) (UniProt P35869); test: qHTS assay to identify small molecule that activate the aryl hydrocarbon receptor (AhR) signaling pathway (AID 743085); settings: HepG2 AhR-luc (HG2L7.5c1), luciferase, 24 h; also: potency is read from the fitted curve at half-maximal effect; nearly all actives have a fitted effect of over 15% in size
[22] = qHTS assay to identify small molecule agonists of the AP-1 signaling pathway (AID 1159526; calls by dose curve; also: potency is read from the fitted curve at half-maximal effect); settings: ME-180 (cervical carcinoma) AP-1-bla reporter, beta-lactamase FRET ratio, 5 h; activation: at 76.8 µM (top of the series)
[23] = qHTS RealTime-Glo MT Cell Viability Assay in HEK293 cells - 32 hour (AID 1224868); settings: RealTime-Glo luminescence
Method in brief: (§1)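 Nonlytic real-time viability readout: viable cells convert prosubstrate to NanoLuc substrate, giving luminescence proportional to live cell number. HEK293, 600 cells/well, compound added after 5 h, continuous culture at 37 C.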

[24] = qHTS RealTime-Glo MT Cell Viability Assay in HEK293 cells - 24 hour (AID 1224886); settings: RealTime-Glo luminescence
Method in brief: as §1

[25] = qHTS assay for small molecule disruptors of the mitochondrial membrane potential (AID 720635); settings: HepG2 mitochondrial membrane potential, Mito-MPS dye ratio; ratio activity, negative = MMP loss: at 83.2 µM (top of the series) unless noted; also: potency is read from the fitted curve at half-maximal effect
[26] = qHTS assay for small molecule agonists of the antioxidant response element (ARE) signaling pathway (AID 743202; active = well fitted activation curve with a large enough effect in the signal ratio in the repeat runs, not every such curve was filed as active; inconclusive = weak or mixed curves, or effect the other way; inactive = no such curve, though single readings can be large or run the other way; the % refers to the signal ratio; also: % is scaled to controls: 0 for no effect and ±100 for the full control effect); settings: HepG2 ARE-bla reporter, beta-lactamase FRET, 16 h; activation: at 73.3 µM (top of the series)
Method in brief: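 Read-out: LiveBLAzer B/G FRET substrate fluorescence after 2 h at room temperature, following 16 h compound treatment at 37 C of HepG2 cells carrying an ARE-driven beta-lactamase reporter.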

[27] = target: Cytochrome P450 2C19 (Homo sapiens) (UniProt P33261); test: Cytochrome P450 Family 2 Subfamily C Member 19 (CYP2C19) small molecule antagonists: luciferase reporter qHTS assay (AID 1671197); settings: P450-Glo CYP2C19 enzyme, luciferin luminescence, 1 h; also: potency is read from the fitted curve at half-maximal effect; nearly all actives have a fitted effect of over 65% in size
Method in brief: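 CYP2C19 P450-Glo, 1536-well qHTS. Cpd + enzyme/proluciferin substrate 10 min RT; + NADPH regen, 37C 1 h; stop with luciferin detection reagent, 20 min RT, luminescence (RLU). Pos ctrl ketoconazole.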

[28] = target: Retinoic acid receptor RXR-alpha (Homo sapiens) (UniProt P19793); test: qHTS assay to identify small molecule agonists of the RXR signaling pathway (AID 1159527; calls by dose curve; also: % is scaled to controls: 0 for no effect and ±100 for the full control effect; nearly all actives have a fitted effect of over 35% in size); settings: HEK293T RXRa-UAS-bla, beta-lactamase ratio, 16 h; activation: at 76.8 µM (top of the series)
[29] = target: Cytochrome P450 2C9 (Homo sapiens) (UniProt P11712); test: Cytochrome P450 Family 2 Subfamily C Member 9 (CYP2C9) small molecule antagonists: luciferase reporter qHTS assay (AID 1671198); settings: P450-Glo CYP2C9 enzyme assay, luciferin luminescence
Method in brief: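 CYP2C9 activity was measured with a P450-Glo proluciferin substrate. Enzyme–substrate mix was held with compound for 10 min at room temperature, then NADPH regeneration solution was added for 1 h at 37C. Luciferin product was read as luminescence.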

[30] = qHTS assay to identify small molecule agonists of the farnesoid-X-receptor (FXR) signaling pathway - cell viability counter screen (AID 743218); settings: FXR-bla HEK293T viability, CellTiter-Glo luminescence, 16 h; viability change, negative = cytotoxic: at 81.1 µM (top of the series)
Method in brief: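 Parallel cytotoxicity test: compound-treated (16 h, 37 C) HEK 293T FXR-bla reporter cells were lysed with CellTiter-Glo and luminescence recorded.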

[31] = target: Thyrotropin receptor (Homo sapiens) (UniProt P16473); test: qHTS assay to identify small molecule antagonists of the thyroid stimulating hormone receptor (TSHR) signaling pathway (AID 1259385; calls by dose curve; also: potency is read from the fitted curve at half-maximal effect; nearly all actives have a fitted effect of over 20% in size); settings: TSHR-HEK293 cAMP HTRF, TSH-stimulated antagonist mode; activity change, negative = inhibition: at 92.4 µM (top of the series)
[32] = target: Cytochrome P450 2D6 (Homo sapiens) (UniProt P10635); test: Cytochrome P450 Family 2 Subfamily D Member 6 (CYP2D6) small molecule antagonists: luciferase reporter qHTS assay (AID 1671196); settings: P450-Glo CYP2D6 enzyme assay, luciferin luminescence, 1 h
Method in brief: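 Each well received CYP2D6 with its proluciferin substrate and chemical, sat 10 min, then got NADPH regeneration solution for 1 h at room temperature. Luminescence in RLU served as the activity measure.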

CN(C(=O)Cc1ccc(Cl)c(Cl)c1)[C@H]1CC[C@@]2(CCCO2)C[C@@H]1N1CCCC1
inconclusive: activation [1] 7.24% | activation [2] 17% | Potency [3] 33.5 µM | Potency [4] 15 µM | Potency [5] 33.5 µM | Potency [6] 33.5 µM | Potency [7] 33.5 µM | Potency [8] 12 µM | Potency [9] 33.5 µM | Potency [10] 33.5 µM | Potency [11] 23.9 µM

CCCCOP(OCCCC)OCCCC
inconclusive: Potency [12] 54.5 µM | Potency [13] 24.5 µM | Potency [14] 71 µM | Potency [15] 35.6 µM

CN(C(=O)Cc1ccccc1)[C@H]1CC[C@@]2(CCCO2)C[C@@H]1N1CCCC1
inconclusive: Potency [16] 5.62 µM | Potency [17] 1.69 µM | activation [18] -1.3% | Potency [19] 23.9 µM | Potency [20] 23.7 µM

CN(N=O)C(=N)N[N+](=O)[O-]
inconclusive: Potency [17] 0.0061 µM | Potency [21] 21.6 µM | Potency [22] 15.4 µM | Potency [23] 34.4 µM | Potency [24] 34.4 µM | Potency [9] 0.242 µM

ClP(Cl)c1ccccc1
inconclusive: Potency [25] 43.3 µM | activation [26] 0.633% | Potency [9] 15.4 µM | Potency [27] 89.4 µM

O=[P+](Oc1ccccc1)Oc1ccccc1
inconclusive: Potency [17] 2.44 µM | Potency [7] 48.3 µM | activation [28] 19.4% | Potency [29] 79.3 µM

CCOC(=O)Cl
inconclusive: Potency [30] 23.3 µM | Potency [31] 1.3 µM | Potency [32] 3.01 µM
